Test results taken from patent US10195218B2, “Crystallization method and bioavailability” (GRUNENTHAL GMBH, priority 2016, dated 2019).

Test: Rat PK study: plasma concentrations of zoledronic acid after IV, oral gavage or intraduodenal (ID) dosing, LC/MS/MS
Assay type: in vivo, Sprague-Dawley Rats
Protocol: USA. […] Surgical catheters (jugular vein) were implanted prior to the study. […] IV Administration: the dose of zoledronic acid for IV administration was 0.5 mg/kg. […] Oral gavage administration: solid suspensions were administered. […] For solid suspensions, animals were administered 5 mg/kg of zoledronic acid or 5 mg/kg of zoledronic acid in zoledronic acid complexes contained in a suspension of PEG 400. • iii. Duodenal cannula administration: solid suspensions were administered. […] For solid suspensions, animals were administered 5 mg/kg of zoledronic acid or 5 mg/kg of zoledronic acid in zoledronic acid complexes contained in a suspension of PEG 400. […] Group I (IV administration). Group members, designated IV doses are listed below IV comparator group, was conducted to calculate MAT (mean absorption time) and ka (absorption rate constant) for the oral groups. Group II (oral gavage): Group designations and oral doses are listed below: Group III (ID administration): Group designations and oral doses are listed below: Group IV (oral gavage): Group designations and oral doses are listed below: […]

In the case of “Zoledronic Acid, Sodium Zoledronic Salt, and Water Complex”, the “Average plasma concentration of 3 Rats” value (ID (duodenal cannula) 5 mg/kg zoledronic acid equivalent, PEG 400, time 0.25 hour) was 39.99 ng/mL, the “Average plasma concentration of 3 Rats” value (ID (duodenal cannula) 5 mg/kg zoledronic acid equivalent, PEG 400, time 1 hour) was 18.50 ng/mL and the “Average plasma concentration of 3 Rats” value (ID (duodenal cannula) 5 mg/kg zoledronic acid equivalent, PEG 400, time 4 hour) was 0.71 ng/mL. The “Average plasma concentration of 3 Rats” value (ID (duodenal cannula) 5 mg/kg zoledronic acid equivalent, PEG 400, time 8 hour) was 0.00 ng/mL, the “Average plasma concentration of 3 Rats” value (ID (duodenal cannula) 5 mg/kg zoledronic acid equivalent, PEG 400, time 24 hour) was 0.00 ng/mL and the “Average plasma concentration of 3 Rats” value (PO gavage 5 mg/kg zoledronic acid equivalent, PEG 400, time 0.25 hour (Table 1)) was 278.47 ng/mL. The “Average plasma concentration of 3 Rats” value (PO gavage 5 mg/kg zoledronic acid equivalent, PEG 400, time 0.5 hour (Table 1)) was 280.20 ng/mL, the “Average plasma concentration of 3 Rats” value (PO gavage 5 mg/kg zoledronic acid equivalent, PEG 400, time 1 hour (Table 1)) was 171.59 ng/mL and the “Average plasma concentration of 3 Rats” value (PO gavage 5 mg/kg zoledronic acid equivalent, PEG 400, time 4 hour (Table 1)) was 13.42 ng/mL. The “Average plasma concentration of 3 Rats” value (PO gavage 5 mg/kg zoledronic acid equivalent, PEG 400, time 8 hour (Table 1)) was 1.78 ng/mL and the “Average plasma concentration of 3 Rats” value (PO gavage 5 mg/kg zoledronic acid equivalent, PEG 400, time 24 hour (Table 1)) was 0.00 ng/mL.
